Here are results for one compound from patent US7612071B2, “Compositions and methods employing aminopterin” (Syntrix Biosystems, Inc., priority 2004, dated 2009).

For assay [1], the system named is standard and high-risk ALL. To be noted: for Therapeutic Component: Percentage effective (no evidence of a disease manifestation): greater than 12 months treatment, AMT 4 mg/m^2/wk high risk ALL (n=20), MTX 100 mg/m^2/wk standard risk ALL (n=20).
For assay [2], the system named is T-lineage acute lymphoblastic leukemia (ALL). To be noted: peripheral blasts and bone marrow infiltrates in T-lineage ALL, n=7.

SMILES strings stand for the structures. Like-named read-outs stand apart in the source and are kept apart here.

On to `CN(Cc1cnc2nc(N)nc(N)c2n1)c1ccc(C(=O)N[C@@H](CCC(=O)O)C(=O)O)cc1` [MTX, methotrexate, reference compound], for which the “Therapeutic Component: Antifolate dose” value in assay [1] (AMT high risk ALL (n=20), MTX standard risk ALL (n=20), Table V) is reported as 100 mg/m^2/wk:; in assay [2], >5000 mg/m^2/wk:; in assay [2] (listed as methotrexate) it was > 5,000 mg/m^2/wk. In addition, the “Therapeutic Component: Antifolate dose with same efficacy as MTX at 100 mg/m^2/wk” value in assay [1] (AMT high risk ALL (n=20), MTX standard risk ALL (n=20), Table VI) came to 100 mg/m^2/wk. Also, the results for the “Therapeutic Component: Percentage effective (no evidence of a disease manifestation)” value in assay [1] and in assay [1] (listed as methotrexate) were 100% effective at and 100%, respectively. Moreover, in assay [2] (AMT 4 mg/m^2/wk, MTX >5000 mg/m^2/wk in the same patients), the “Therapeutic Component: Percentage effective (complete remission or stable disease)” value was 0% effective in.
